# The list shows a part of the results, in another mix than the full data. Records with an inconclusive call do not appear. Activity calls are given as the source filed them. The call rests on the fitted dose curve; in most records, active means well fitted activation curve with a large enough effect; inconclusive means small, poorly fitted or top-dose-only effect; inactive means no such curve, though single readings can be large or run the other way.
# Assay: A quantitative high throughput screen for small molecules that induce DNA re-replication in SW480 colon adenocarcinoma cells. Further: % of control where 0% means no effect; nearly all actives have a fitted effect of over 55% in size.
# Conditions: Hoechst DNA content imaging, 48 h; at 46.1 µM (top of the series)
row,Structure (SMILES),re-replication activation
1,CC(=O)c1ccc(N2CC2c2ccncc2)cc1 (configuration not stated),inactive: -1.6%
2,CP(=O)(Nc1ccc(Cl)cc1)Oc1ccc(F)cc1 (configuration not stated),inactive: -2.3%

# Source: PubChem BioAssay AID624297 (National Center for Advancing Translational Sciences (NCATS), 2012)
